Reference: patent US20250221987A1, “PIPERAZINO RING-CONTAINING DERIVATIVE, PHARMACEUTICALLY ACCEPTABLE SALT THEREOF, PREPARATION METHOD THEREFOR, AND APPLICATION THEREOF” (ACERAND THERAPEUTICS (HONG KONG) LIMITED, priority 2022, published 2025)

Each molecule was assayed on MDA-MB-436 cells (assay: Proliferation activity assay of MDA-MB-436 cells (CellTiter-Glo)). Conditions: 4000 cells seeded, 6 days incubation; read-out: MDA-MB-436 proliferation inhibition IC50.
Assay type: cell-based
Description: Complete culture medium was prepared and mixed thoroughly. The cells were resuscitated and cultured for about two passages to select a cell line in good growth condition. The cell culture flask was removed from the incubator. Cell adherence: the culture medium was aspirated, then the cells were washed once with trypsin to discard the waste liquid, and 3 mL of fresh trypsin was added to the culture flask for digestion. When the cells were loose to be detached from the wall of the flask, 8 mL of complete culture medium was added thereto to stop trypsin digestion and mixed gently. The cell suspension was transferred to a centrifuge tube with a pipette and centrifuged at 1000 rpm for 5 minutes. The supernatant was discarded. An appropriate volume of culture medium was added to the centrifuge tube and pipetted gently to resuspend the cells evenly. The cells were counted using a Vi-Cell XR cell counter. The cell suspension was adjusted to an appropriate concentration. The cell suspension was added to a 96-well plate at 100 µL/well. The details such as cell name, seeding density, and date were labelled, and the culture plate was placed in a CO2 incubator overnight.
The compound to be tested was prepared into a 10 mM stock solution, which was aliquoted and stored in a −20° C. freezer. The compound solution was added to a 96-well plate using HPD300. The plate was incubated in a CO2 incubator for a total of 6 days.
CellTiter-Glo buffer was melted at room temperature. The lyophilized CellTiter-Glo substrate was equilibrated to room temperature. CellTiter-Glo buffer was added to the CellTiter Glo substrate and mixed thoroughly. A cell plate was taken out and equilibrated to room temperature. 100 μL of mixed CellTiter Glo reagent was added to each well, and the mixture was shaken in the dark for 10 minutes, followed by incubation for 20 minutes. The culture plate was placed into an Enspire reading plate, and the luminescence reading results were recorded. […] A pharmacodynamic inhibition rate curve was plotted by using XLFit, and the IC50 value was calculated. […]
For `CNC(=O)c1ccc(N2CCN(Cc3cnc4cc(C5CC5)c(=O)[nH]c4c3)[C@H]3CC[C@H]32)cn1` [Example 16-1], the IC50 was 5 nM. Molecule `CNC(=O)c1ccc(N2CCN(Cc3cnc4c(F)c(C)c(=O)[nH]c4c3)[C@@H]3CCC32)cn1` (stereo partly drawn) [Example 41-2] has an IC50 of 5 nM. `CNC(=O)c1ccc(N2CCN(Cc3ccc4nc(C(C)(F)F)c(=O)[nH]c4c3)[C@@H]3CCC32)cn1` (stereo partly drawn) [Example 42-2] showed an IC50 of 8 nM.
